The test addresses T1, CD36 (Rattus norvegicus, UniProt Q07969).
T1 construct: from tissue; host or cells: Heart (cardiac membranes) of Sprague Dawley rats from Charles River
The experiment in a line: Competition binding of photoactivatable [125I]-Tyr-Bpa-Ala-Hexarelin to CD36 in rat cardiac membranes. To be noted: competition with [125I]-Tyr-Bpa-Ala-Hexarelin, rat heart membranes; read-out: IC50 (μM), binding affinity for CD36. As for the experimental part:
Hearts from Sprague Dawley rats (300-325 g) from Charles River were cut into small pieces and homogenized with a Polytron® at low speed, 3×15 sec in buffer A (10 mM NaHCO3, 5 mM NaN3, 10 μM Pefabloc®, 0.1 μM Aprotinin, 1 μM Pepstatin A, 1 μM Leupeptin, pH 7.0) at a concentration of […] of tissue. The homogenate was first centrifuged at 8,700×g for 20 min in a Sorvall® centrifuge and the supernatant was collected on ice. The pellet was resuspended and re-homogenized with a Glass-Teflon® Potter by 5 strokes. This homogenate was recentrifuged at 8,700×g for 10 min and the resulting supernatant was combined with the first collected supernatant. The combined supernatant was centrifuged at 35,000×g for 20 min. The pellet fraction obtained was resuspended in Buffer B (20 mM Tris-maleate, 0.6M KCl, pH 6.8) in a volume corresponding to 20 mL/g of fresh tissue using a glass homogenizer with a Teflon pestle. The resulting suspension was centrifuged again at 35,000×g for 60 min. and the pellet fraction obtained was resuspended in Buffer C (10 mM Tris/HCl buffer pH 7.4) and thoroughly homogenized in a glass with a Teflon® pestle (20 ml/g of fresh tissue). This suspension was submitted to another centrifugation at 35,000×g for 60 min. […] Protein concentration was determined using the bicinchoninic acid (BCA) method, employing BSA as standard. […]

Amino acid sequences for entries named in this document (tags omitted). A change or cut given only in a name is not applied to a line headed by its entry.
UniProt Q07969: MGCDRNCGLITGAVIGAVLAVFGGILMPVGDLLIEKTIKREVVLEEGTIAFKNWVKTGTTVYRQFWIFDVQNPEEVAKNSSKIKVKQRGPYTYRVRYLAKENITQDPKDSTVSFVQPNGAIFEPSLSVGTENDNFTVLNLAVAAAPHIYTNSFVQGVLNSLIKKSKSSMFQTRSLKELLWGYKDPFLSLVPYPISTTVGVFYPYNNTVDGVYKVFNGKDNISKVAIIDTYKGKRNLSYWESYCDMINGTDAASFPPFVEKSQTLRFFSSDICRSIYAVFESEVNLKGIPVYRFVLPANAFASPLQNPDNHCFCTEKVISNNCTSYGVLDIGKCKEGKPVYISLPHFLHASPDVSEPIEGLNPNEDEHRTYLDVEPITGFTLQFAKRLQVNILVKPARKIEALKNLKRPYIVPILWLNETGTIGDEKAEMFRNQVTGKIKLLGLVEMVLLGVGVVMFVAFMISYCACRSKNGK

Molecules are shown by their SMILES.

As for `Cc1[nH]c2ccccc2c1C[C@@H](NC(=O)[C@@H](N)Cc1cnc[nH]1)C(=O)N[C@@H](C)C(=O)N[C@@H](Cc1c[nH]c2ccccc12)C(=O)N[C@H](Cc1ccccc1)C(=O)N[C@@H](CCCCN)C(N)=O` [Hexarelin, reference compound], the IC50 came out at 0.5 µM.

The values are drawn from patent US11879021B2, “Cyclic peptides and uses thereof” (UNIVERSITÉ DE MONTRÉAL, priority 2016, dated 2024).
